{"source": "patent US20210120813A1", "about": "“INHIBITORS OF THE SHIKIMATE PATHWAY” (PEPTICOM LTD., priority 2018, published 2021)", "key": {"[1]": {"test_system": "Lolium multiflorum (LOLMU)", "test": "Weed efficacy on petri dishes, germination and visual notation, LOLMU", "assay_type": "in vivo", "settings": "10 DAT; for LOLMU Visual notation Mean: scale 0 = as control to 100"}, "[2]": {"test_system": "Chenopodium album (CHEAL)", "test": "Weed efficacy on petri dishes, germination and visual notation, CHEAL", "assay_type": "in vivo", "settings": "10 DAT; for CHEAL Visual notation Mean: scale 0 = as control to 100"}, "[3]": {"test_system": "EPSPS (TIPS mutant) from common wheat", "test": "E. coli AB2829 growth rescue screen with EPSPS TIPS mutant (OD600)", "assay_type": "cell-based, Triticum Aestivum"}}, "note": "Some compounds may have been tested in ways that are not shown here.", "data": [{"smiles": "COc1ccc([N+](=O)[O-])cc1[N+](=O)[O-]", "values": [{"measurement": "LOLMU Germination (%) Mean", "setting": "[1]; 50 mg a.i./L", "result": 95.6, "unit": "%"}, {"measurement": "LOLMU Visual notation Mean", "setting": "[1]; 50 mg a.i./L", "result": 3.8}, {"measurement": "LOLMU Germination (%) Mean", "setting": "[1]; 500 mg a.i./L", "result": 85.9, "unit": "%"}, {"measurement": "LOLMU Visual notation Mean", "setting": "[1]; 500 mg a.i./L", "result": 76.3}, {"measurement": "LOLMU Germination (%) Mean", "setting": "[1]; 5000 mg a.i./L", "result": 0.0, "unit": "%"}, {"measurement": "LOLMU Visual notation Mean", "setting": "[1]; 5000 mg a.i./L", "result": 100.0}, {"measurement": "CHEAL Germination (%) Mean", "setting": "[2]; 50 mg a.i./L", "result": 73.8, "unit": "%"}, {"measurement": "CHEAL Visual notation Mean", "setting": "[2]; 50 mg a.i./L", "result": 41.7}, {"measurement": "CHEAL Germination (%) Mean", "setting": "[2]; 500 mg a.i./L", "result": 63.6, "unit": "%"}, {"measurement": "CHEAL Visual notation Mean", "setting": "[2]; 500 mg a.i./L", "result": 53.1}, {"measurement": "CHEAL Germination (%) Mean", "setting": "[2]; 5000 mg a.i./L", "result": 18.9, "unit": "%"}, {"measurement": "CHEAL Visual notation Mean", "setting": "[2]; 5000 mg a.i./L", "result": 94.3}, {"measurement": "ability of rescued AB2829 bacteria cells (EPSPS TIPS) to grow on M9 minimal media", "setting": "[3]; 20 mM, 40 h, 0.1% rhamnose", "result": "completely abolish"}, {"measurement": "% bacterial growth relative to rescue with mutant EPSPS at 20 mM, 40 h post application", "setting": "[3]; 40 h post application, OD600, EPSPS null = 0%, Rescue = 100%", "result": "−256", "unit": "%"}]}]}
